Laboratory results published in US20180207202A1, “METHODS FOR MOBILIZING HEMATOPOIETIC STEM CELLS” (Ohio State Innovation Foundation, priority 2013, published 2018).

Test system: LSK cells
Assay: Co-administration of cytokines and FLT3L, LSK cell mobilization (Example 4)
Format: in vivo
Details: IFN-β co-administered with GM-CSF or FLT3L
From the text: The co-administration of cytokines is common in other types of cell mobilization methods. […] LSK cells are hematopoietic stem cells that were Lin-negative, Scal -positive, and c-kit-negative.

B1: IFN-β: a routinely utilized cytokine, co-administered with GM-CSF or FLT3L (protein, UniProt P01574 22-187, looked up)
Interferon beta: MSYNLLGFLQRSSNFQCQKLLWQLNGRLEYCLKDRMNFDIPEEIKQLQQFQKEDAALTIYEMLQNIFAIFRQDSSSTGWNETIVENLLANVYHQINHLKTVLEEKLEKEDFTRGKLMSSLHLKRYYGRILHYLKAKEYSHCAWTIVRVEILRNFYFINRLTGYLRN
Q: B1 was tested. Which “percentage of LSK cells” value did it give?
A: The value was “dramatically reduced”.
